Target: Prostaglandin G/H synthase 1 (Homo sapiens, UniProt P23219)
Test: Inhibition of COX1 assessed as TBX2 production in human whole blood
Type: functional, tissue-based

Chains of the proteins cited; added tags and fusions are not shown.
UniProt P23219, whole entry: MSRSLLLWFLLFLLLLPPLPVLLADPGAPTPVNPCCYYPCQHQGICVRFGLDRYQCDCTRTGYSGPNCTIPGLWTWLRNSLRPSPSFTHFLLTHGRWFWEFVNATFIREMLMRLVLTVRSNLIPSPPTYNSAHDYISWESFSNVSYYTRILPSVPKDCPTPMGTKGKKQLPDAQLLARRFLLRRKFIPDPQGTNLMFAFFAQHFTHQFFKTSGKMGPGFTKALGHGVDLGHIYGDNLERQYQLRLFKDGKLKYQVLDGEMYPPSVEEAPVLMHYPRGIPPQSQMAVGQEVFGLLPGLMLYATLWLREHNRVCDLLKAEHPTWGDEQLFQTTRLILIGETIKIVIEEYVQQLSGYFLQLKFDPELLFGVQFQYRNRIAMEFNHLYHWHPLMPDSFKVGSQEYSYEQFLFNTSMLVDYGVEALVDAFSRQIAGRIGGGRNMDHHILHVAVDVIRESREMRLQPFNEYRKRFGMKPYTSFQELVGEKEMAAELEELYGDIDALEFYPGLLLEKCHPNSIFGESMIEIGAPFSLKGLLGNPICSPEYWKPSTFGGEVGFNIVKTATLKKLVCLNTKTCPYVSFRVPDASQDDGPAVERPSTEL

## Oc1ccc(/C=C/c2cc(O)cc(O)c2)cc1 [RESVERATROL]
  IC50: 2840 nM

From ChEMBL document CHEMBL1149501, “Selective COX-2 inhibitors. Part 1: synthesis and biological evaluation of phenylazobenzenesulfonamides” (Bioorg Med Chem Lett, 2006)
